Data as given in EP4834914A1, “SOLID-PHASE SYNTHESIS METHOD FOR GLP-1/GIP DUAL AGONIST” (dated 2026).

Sequences of proteins named here, by UniProt entry; tags and fusion partners are left off. Residues count along the entry.
UniProt P48546, 22-466 limits assumed: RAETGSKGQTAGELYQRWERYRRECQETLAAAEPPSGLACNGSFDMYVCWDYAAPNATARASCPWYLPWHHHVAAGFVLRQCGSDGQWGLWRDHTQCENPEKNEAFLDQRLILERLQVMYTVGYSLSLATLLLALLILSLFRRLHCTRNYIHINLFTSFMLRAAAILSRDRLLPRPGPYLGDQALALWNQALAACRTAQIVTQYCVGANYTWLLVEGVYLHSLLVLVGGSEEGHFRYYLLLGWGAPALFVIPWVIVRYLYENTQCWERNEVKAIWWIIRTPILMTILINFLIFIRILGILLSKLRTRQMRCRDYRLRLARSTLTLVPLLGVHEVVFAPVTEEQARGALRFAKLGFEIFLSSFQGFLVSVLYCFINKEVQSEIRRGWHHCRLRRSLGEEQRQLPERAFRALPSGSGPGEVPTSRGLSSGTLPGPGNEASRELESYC
UniProt P43220, 24-463 limits assumed: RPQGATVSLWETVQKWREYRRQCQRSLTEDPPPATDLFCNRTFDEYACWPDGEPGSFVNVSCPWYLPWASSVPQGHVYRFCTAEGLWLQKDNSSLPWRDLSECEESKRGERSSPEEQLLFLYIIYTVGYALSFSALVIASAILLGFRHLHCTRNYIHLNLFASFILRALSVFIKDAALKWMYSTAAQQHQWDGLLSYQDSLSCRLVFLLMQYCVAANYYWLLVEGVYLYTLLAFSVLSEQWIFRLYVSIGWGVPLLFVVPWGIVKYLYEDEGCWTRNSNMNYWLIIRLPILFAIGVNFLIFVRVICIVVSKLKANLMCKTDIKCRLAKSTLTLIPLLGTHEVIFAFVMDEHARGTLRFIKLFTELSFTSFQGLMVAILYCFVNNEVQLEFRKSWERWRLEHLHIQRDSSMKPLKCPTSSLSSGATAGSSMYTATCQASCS

Key:
GIPR = GIPR (Homo sapiens, UniProt P48546); assay: In vitro receptor binding, [125I]GIP displacement on membranes; details: ratio of the Ki value of the endogenous ligand (GIP) to the Ki value of the test compound; [125I]GIP 0.0315 nM
Description: hGIP and the polypeptide compound of the present invention were dissolved in DMSO and stored at -80°C. 98 µL of membrane dissolved in binding buffer (50 mM HEPES pH 7.4, 5 mM MgCl2, 1 mM CaCl2, 0.1% BSA, 0.005% Tween-20) was transferred to a 96-well test plate (15 µg/well). The compound was diluted in DMSO, and then, 2 µL of the diluted compounds or 100% DMSO was added to the test plate containing the membrane solution. 100 µL of [125I]GIP was further added (the final concentration in the reaction was 0.0315 nM). The test plate was left at room temperature for 90 minutes. The membrane complexes were harvested into a GF/B plate precoated with 0.5% PEI by using a Cell Harvester, and washed for 3 times with 500 µL of pre-cooled elution buffer (50 mM Tris-HCl pH 7.4, 125 mM NaCl) at 4°C. After drying at 37°C for 2 hours, 50 µL of scintillation fluid was added to each well. The plate was read with a MicroBeta2 scintillation counter after sealing and settling for at least 1 hour so as to determine the membrane bound radioligand level.
The absolute IC50 concentration of the compound was derived by non-linear regression of the binding percent of [125I]GIP versus the concentration of the compound added. The IC50 concentration was converted to Ki (Ki was the inhibition constant) using the Cheng-Prusoff equation. Table 6. Receptor Binding Affinity of the Polypeptide

GLP-1R = GLP-1R (Homo sapiens, UniProt P43220); assay: In vitro receptor binding, [125I]GLP-1 displacement on membranes; details: ratio of the Ki value of the endogenous ligand (GLP-1) to the Ki value of the test compound; [125I]GLP-1 0.15 nM
Description: hGLP-1 and the compound of the present invention were dissolved in DMSO and stored at -80°C. 89 µL of membrane dissolved in binding buffer (50 mM Hepes, pH 7.4, 5 mM MgCl2 , 5 mM EDTA, 0.005% TWEEN, 0.005% HSA) was transferred to a 96-well test plate (5 µg/well). The compound was diluted in DMSO, and then, 1 µL of the diluted compound or 100% DMSO was added to the test plate containing the membrane solution. 10 µL of [125I] GLP-1 was further added (the final concentration in the reaction was 0.15 nM). The test plate was left at room temperature for 90 minutes. The membrane complexes were harvested into a GF/B plate precoated with 0.5% PEI by using a Cell Harvester, and washed for 3 times with 500 µL of pre-cooled elution buffer (50 mM Hepes, pH 7.4, 500 mM NaCl) at 4°C. After drying at 37°C for 2 hours, 50 µL of scintillation fluid was added to each well. The plate was read with a MicroBeta2 scintillation counter after sealing and settling for at least 1 hour so as to determine the membrane bound radioligand level.
The absolute IC50 concentration of the compound was derived by non-linear regression of the binding percent of [125I]GLP-1 versus the concentration of the compound added. The IC50 concentration was converted to Ki (Ki was the inhibition constant) using the Cheng-Prusoff equation.

db/db mice = assay: Pharmacodynamic effects on blood glucose in diabetic model mice; details: male db/db mice, single subcutaneous administration, 10 nmol/kg, 0 to 120 hours, significant difference versus vehicle group; two study groups (Group 1, Group 2)
Description: In this study, db/db mice were subcutaneously single administered, and the changes in the blood glucose, the food intake, and the body weight of the mice were measured to illustrate the hypoglycemic effects of the compounds according to the present invention as well as the duration of the drug effect. In this study, 8-9 week old male db/db mice were used. The db/db mice were placed in an individual ventilated cage (IVC) facility with a controlled temperature (20-26°C) and humidity (40-70%) and a controlled 12h:12h light-dark cycle. The mice can receive food and water ad libitum. Blood was sampled at the tail tip, and the base blood glucose was measured by a Roche blood glucose meter. The mice were randomly divided into groups according to the initial blood glucose and initial body weight (n=6/group), and each group had similar body weight and blood glucose.
The compounds of the invention (10 nmol/kg) were dissolved in a solvent (PBS containing 0.1% Tween 20, pH 7.2-7.4). At the set time point (0 to 120 hours), the recorded hypoglycemic duration of the polypeptide compounds has a significant difference vesus the vehicle group. Table 8. Hypoglycemic Duration of the Polypeptide

GIPR Ki ratio (GIPR)	GLP-1R Ki ratio (GLP-1R)	Substance	Hypoglycemic Duration (db/db mice)
0.06	0.28	Tirzepatide	56 h and 48 h
0.05	1.45	H-Tyr^1-Aib^2-Glu^3-Gly^4-Thr^5-αMePhe^6-Thr^7-Ser^8-Asp^9-Tyr^10-Aib^11-Ile^12-Aib^13-Leu^14-Asp^15-Lys^16-Gln^17-Ala^18-Gln^19-Ala^20-Glu^21-Phe^22-Val^23-Lys^24-Trp^25-Leu^26-Leu^27-Lys^28(AEEA-AEEA-γGlu-γGlu-γGlu-CO-(CH2)16-COOH)-Gly^29-Gly^30-Pro^31-Ser^32-Ser^33-Gly^34-Ala^35-Pro^36-Pro^37-Pro^38-Ser^39-Lys^40-NH2	48 h
0.09	0.93	H-Tyr^1-Aib^2-Glu^3-Gly^4-Thr^5-αMePhe^6-Thr^7-Ser^8-Asp^9-Tyr^10-Aib^11-Ile^12-Aib^13-Leu^14-Asp^15-Lys^16-Gln^17-Ala^18-Gln^19-Ala^20-Glu^21-Phe^22-Val^23-Lys^24-Trp^25-Leu^26-Leu^27-Lys^28(AEEA-AEEA-AEEA-γGlu-CO-(CH2)16-COOH)-Gly^29-Gly^30-Pro^31-Ser^32-Ser^33-Gly^34-Ala^35-Pro^36-Pro^37-Pro^38-Ser^39-Lys^40-NH2	56 h
0.11	0.63	H-Tyr^1-Aib^2-Glu^3-Gly^4-Thr^5-αMePhe^6-Thr^7-Ser^8-Asp^9-Tyr^10-Aib^11-Ile^12-Aib^13-Leu^14-Asp^15-Lys^16-Gln^17-Ala^18-Gln^19-Ala^20-Glu^21-Phe^22-Val^23-Lys^24(AEEA-AEEA-AEEA-γGlu-CO-(CH2)20-COOH)-Trp^25-Leu^26-Leu^27-Lys^28-Gly^29-Gly^30-Pro^31-Ser^32-Ser^33-Gly^34-Ala^35-Pro^36-Pro^37-Pro^38-Ser^39-Lys^40-NH2	104 h
0.08	0.37	H-Tyr^1-Aib^2-Glu^3-Gly^4-Thr^5-αMePhe^6-Thr^7-Ser^8-Asp^9-Tyr^10-Aib^11-Ile^12-Aib^13-Leu^14-Asp^15-Lys^16-Gln^17-Ala^18-Gln^19-Ala^20-Glu^21-Phe^22-Val^23-Lys^24(AEEA-AEEA-γGlu-CO-(CH2)20-COOH)-Trp^25-Leu^26-Leu^27-Lys^28-Gly^29-Gly^30-Pro^31-Ser^32-Ser^33-Gly^34-Ala^35-Pro^36-Pro^37-Pro^38-Ser^39-Lys^40-NH2	104 h
0.05	1.36	H-Tyr^1-Aib^2-Glu^3-Gly^4-Thr^5-αMePhe^6-Thr^7-Ser^8-Asp^9-Tyr^10-Aib^11-Ile^12-Aib^13-Leu^14-Asp^15-Lys^16-Gln^17-Ala^18-Gln^19-Ala^20-Glu^21-Phe^22-Val^23-Lys^24-Trp^25-Leu^26-Leu^27-Lys^28(AEEA-AEEA-AEEA-γGlu-CO-(CH2)20-COOH)-Gly^29-Gly^30-Pro^31-Ser^32-Ser^33-Gly^34-Ala^35-Pro^36-Pro^37-Pro^38-Ser^39-Lys^40-NH2	104 h
0.14	0.28	H-Tyr^1-Aib^2-Glu^3-Gly^4-Thr^5-αMePhe^6-Thr^7-Ser^8-Asp^9-Tyr^10-Aib^11-Ile^12-Aib^13-Leu^14-Asp^15-Lys^16-Gln^17-Ala^18-Gln^19-Ala^20-Glu^21-Phe^22-Val^23-Lys^24(AEEA-AEEA-γGlu-CO-(CH2)18-COOH)-Trp^25-Leu^26-Leu^27-Lys^28-Gly^29-Gly^30-Pro^31-Ser^32-Ser^33-Gly^34-Ala^35-Pro^36-Pro^37-Pro^38-Ser^39-Lys^40-NH2	72 h
–	0.17	H-Tyr^1-Aib^2-Glu^3-Gly^4-Thr^5-αMePhe^6-Thr^7-Ser^8-Asp^9-Tyr^10-Aib^11-Ile^12-Aib^13-Leu^14-Asp^15-Lys^16-Gln^17-Ala^18-Gln^19-Ala^20-Glu^21-Phe^22-Val^23-Lys^24(AEEA-AEEA-γGlu-γGlu-γGlu-CO-(CH2)16-COOH)-Trp^25-Leu^26-Leu^27-Lys^28-Gly^29-Gly^30-Pro^31-Ser^32-Ser^33-Gly^34-Ala^35-Pro^36-Pro^37-Pro^38-Ser^39-Lys^40-NH2	32 h
–	0.47	H-Tyr^1-Aib^2-Glu^3-Gly^4-Thr^5-αMePhe^6-Thr^7-Ser^8-Asp^9-Tyr^10-Aib^11-Ile^12-Aib^13-Leu^14-Asp^15-Lys^16-Gln^17-Ala^18-Gln^19-Ala^20-Glu^21-Phe^22-Val^23-Lys^24(AEEA-AEEA-γGlu-CO-(CH2)16-COOH)-Trp^25-Leu^26-Leu^27-Lys^28-Gly^29-Gly^30-Pro^31-Ser^32-Ser^33-Gly^34-Ala^35-Pro^36-Pro^37-Pro^38-Ser^39-Lys^40-NH2	56 h
0.04	0.56	H-Tyr^1-Aib^2-Glu^3-Gly^4-Thr^5-αMePhe^6-Thr^7-Ser^8-Asp^9-Tyr^10-Aib^11-Ile^12-Aib^13-Leu^14-Asp^15-Lys^16-Gln^17-Ala^18-Gln^19-Ala^20-Glu^21-Phe^22-Val^23-Lys^24-Trp^25-Leu^26-Leu^27-Lys^28(AEEA-AEEA-γGlu-CO-(CH2)20-COOH)-Gly^29-Gly^30-Pro^31-Ser^32-Ser^33-Gly^34-Ala^35-Pro^36-Pro^37-Pro^38-Ser^39 -Lys^40-NH2	72 h
8.82	19.52	H-Tyr^1-Aib^2-Glu^3-Gly^4-Thr^5-αMePhe^6-Thr^7-Ser^8-Asp^9-Tyr^10-Aib^11-Ile^12-Aib^13-Leu^14-Asp^15-Lys^16-Gln^17-Ala^18-Gln^19-Ala^20-Glu^21-Phe^22-Val^23-Lys^24-Trp^25-Leu^26-Leu^27-Lys^28-Gly^29-Gly^30-Pro^31-Ser^32-Ser^33-Gly^34-Ala^35-Pro^36-Pro^37-Pro^38-Ser^39-Lys^40-NH2	32 h
0.16	1.09	H-Tyr^1-Aib^2-Glu^3-Gly^4-Thr^5-αMePhe^6-Thr^7-Ser^8-Asp^9-Tyr^10-Aib^11-Ile^12-Aib^13-Leu^14-Asp^15-Lys^16-Gln^17-Ala^18-Gln^19-Ala^20-Glu^21-Phe^22-Val^23-Lys^24-Trp^25-Leu^26-Leu^27-Lys^28(AEEA-AEEA-γGlu-CO-(CH2)16-COOH)-Gly^29-Gly^30-Pro^31-Ser^32-Ser^33-Gly^34-Ala^35-Pro^36-Pro^37-Pro^38-Ser^39-Lys^40-NH2	72 h

“And” between values parts separate entries of the source, which are not always exact repeats. Equal values may be shown once.
